For this experiment, the target named is Beta-2 adrenergic receptor (Homo sapiens, UniProt P07550). Put plainly: biochemical.

By UniProt entry, the sequences of proteins in these tests, tags left out.
UniProt P07550, whole entry: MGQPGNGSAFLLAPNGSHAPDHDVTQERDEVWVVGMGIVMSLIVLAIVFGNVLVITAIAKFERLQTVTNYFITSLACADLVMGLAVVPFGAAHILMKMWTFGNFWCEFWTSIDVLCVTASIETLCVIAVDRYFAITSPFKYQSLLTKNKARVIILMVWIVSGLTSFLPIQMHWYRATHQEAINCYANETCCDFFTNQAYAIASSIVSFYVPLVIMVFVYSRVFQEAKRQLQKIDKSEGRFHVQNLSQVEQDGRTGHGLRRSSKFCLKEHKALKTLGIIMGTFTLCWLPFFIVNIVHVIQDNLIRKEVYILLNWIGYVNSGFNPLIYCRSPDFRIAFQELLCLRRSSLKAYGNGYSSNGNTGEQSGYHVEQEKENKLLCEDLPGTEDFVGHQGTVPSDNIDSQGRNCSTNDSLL

Molecules are shown by their SMILES.

What is called Ki is the equilibrium dissociation constant of an inhibitor or competing ligand from its target. A high value points to lower affinity. Take `CCCC[C@H](C)NC[C@H](O)c1cc(O)cc(O)c1` (racemic): the Ki came out at 31.4 µM.

On to `CCCC[C@H](C)NC[C@@H](O)c1cc(O)cc(O)c1`, for which the inhibition constant Ki amounted to 56.4 µM.

`CCCC[C@@H](C)NC[C@H](O)c1cc(O)cc(O)c1` showed a Ki of 9.28 µM.
